Measured values: patent US20060159681A1 (FUNCTIONAL NEUROSCIENCE, published 2006)

Experiments:
His-parkin = biological target: T1, His-parkin (human, UniProt O60260); assay: in vitro GST pull-down
T1 construct: Purified from E. coli; also called recombinant N-terminus His-tagged parkin; not shown: N-terminal hexa-histidine tag from vector pDEST17
Protocol: (§1) Samples were harvested in lysis-buffer (50 mM Tris-HCl pH 7.4, 150 mM NaCl, 2 mM EDTA, 1% Triton X-100) supplemented with protease inhibitors (Roche). For complete solubilization of the pellet in synphilin ubiquitinylation experiments boiling lysis-buffer with 1% SDS was used. IPs were performed overnight followed by incubation with Protein G sepharose beads (Amersham). PDAs were performed with equimolar amounts of GST- and His-fusion proteins for 1 hr (4° C.). Beads were washed once with lysis-buffer and three times with PBS (pH 7.4).
To further examine the nature of the association between parkin, Hsp70 and BAG5, in vitro pull-down experiments using GST-Hsp70, GST-BAG5, or GST-BAG5(DARA) with recombinant N-terminus His-tagged parkin were used. […] Thus, BAG5 interacted directly with parkin in the absence of Hsp70.

[1] = biological target: T2, endogenous Hsp70 in human brain lysate (human); assay: GST pull-down from human brain SNpc lysate
T2 construct: Native protein in tissue lysate, detected with a monoclonal anti-Hsp70 antibody

His-Hsp70 = biological target: T3, His-Hsp70 (human); assay: in vitro GST pull-down, equimolar GST- and His-fusion proteins
T3 construct: Purified from E. coli (pDEST17) for the pull-down assays; also called full-length Hsp70; not shown: N-terminal hexa-histidine tag from a pDEST vector
Protocol: as §1
To identify the region of Hsp70 which mediates the interaction with BAG5, His-Hsp70 deletion constructs containing only the ATPase Domain (ATPase) or Protein Binding Domain (PBD) of Hsp70 were constructed. Both GST-BAG5 and GST-BAG1, but not GST-alone, pulled down the Hsp70 ATPase domain in vitro. […] Therefore, the ATPase domain of Hsp70 was both necessary and sufficient for the interaction between BAG5 and Hsp70.

Measured: binding result

B1: GST-alone (other, UniProt P08515 1-218, looked up)
chain: MSPILGYWKIKGLVQPTRLLLEYLEEKYEEHLYERDEGDKWRNKKFELGLEFPNLPYYIDGDVKLTQSMAIIRYIADKHNMLGGCPKERAEISMLEGAVLDIRYGVSRIAYSKDFETLKVDFLSKLPEMLKMFEDRLCHKTYLNGDHVTHPDFMLYDALDVVLYMDPMCLDAFPKLVCFKKRIEAIPQIDKYLKSSKYIAWPLQGWQATFGGGDHPPK
notes: Negative control of the pull-down assays
no binding: all assays above
